Experimental data as given in US8263592B2, “Equilibrative nucleoside transporter ENT1 inhibitors” (Janssen Pharmaceutica NV, priority 2007, dated 2012).

Sequences of proteins named here, by UniProt entry; tags and fusion partners are left off.
UniProt Q99808, whole entry: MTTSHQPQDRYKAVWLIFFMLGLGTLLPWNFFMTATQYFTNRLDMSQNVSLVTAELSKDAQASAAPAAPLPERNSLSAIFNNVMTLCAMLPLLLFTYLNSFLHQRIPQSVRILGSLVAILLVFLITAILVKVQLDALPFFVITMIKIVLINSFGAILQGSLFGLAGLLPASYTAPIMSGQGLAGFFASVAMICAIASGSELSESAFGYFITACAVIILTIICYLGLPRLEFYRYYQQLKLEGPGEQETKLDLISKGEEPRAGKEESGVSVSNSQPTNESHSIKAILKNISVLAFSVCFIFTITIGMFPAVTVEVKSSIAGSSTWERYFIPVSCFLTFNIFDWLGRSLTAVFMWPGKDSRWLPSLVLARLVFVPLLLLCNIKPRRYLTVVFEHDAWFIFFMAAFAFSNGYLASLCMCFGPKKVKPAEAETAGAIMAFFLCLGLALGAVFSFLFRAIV

Target: human ENT1 transporter (Homo sapiens, UniProt Q99808)
Test: hENT1-NBMPR-ERYTH binding assay ([3H]NBMPR, human erythrocytes)
Details: [3H]NBMPR 1 nM, washed human red blood cells 1:200, 30 minutes at room temperature; pIC50=-log(IC50)

Structure (SMILES) | pIC50 values for ENT1 transporter inhibition
CC(=O)N1CCC(C(=O)Nc2cc3c(cc2C)C(=O)CC2(CCN(CCNC(=O)c4c(Cl)cccc4Cl)CC2)O3)CC1 | 7.51
CNc1ccc2c(c1)OC1(CCN(CCNC(=O)c3c(Cl)cccc3Cl)CC1)NC2=O | 7.28
Cc1cc2c(cc1NCC1CCCC1)OC1(CCN(CCNC(=O)c3c(Cl)cccc3Cl)CC1)CC2=O | 9.46
O=C1CC2(CCN(CCNC(=O)c3c(Cl)cccc3Cl)CC2)Oc2c(Br)cc(Cl)cc21 | 8.32
O=C(NCCN1CCC2(CCc3cc(Cl)c(OC4CCCC4)cc3O2)CC1)c1c(Cl)cccc1Cl | 10.10
Cc1cccc(C)c1C(=O)NCCN1CCC2(CC1)CC(=O)c1cc(Cl)c(OC3CCCC3)cc1O2 | 9.30
Cc1cc2c(cc1Cl)C(=O)CC1(CCN(CCNC(=O)c3c(Cl)cccc3Cl)CC1)O2 | 8.12
CC(=O)N1CCC(Nc2cc3c(cc2C)CCC2(CCN(CCNC(=O)c4c(Cl)cccc4Cl)CC2)O3)CC1 | 8.055
O=C1CC2(CCN(CCNC(=O)c3c(Cl)cccc3Cl)CC2)Oc2c(O)cc(Cl)cc21 | 7.115
CC(=O)Nc1cc2c(cc1Cl)C(=O)NC1(CCN(CCNC(=O)c3c(Cl)cccc3Cl)CC1)O2 | 7.31
Cc1cccc(C)c1C(=O)NCCN1CCC2(CC1)NC(=O)c1cc(Cl)c(OC3CCCC3)cc1O2 | 7.93
O=C1NC2(CCN(CCNC(=O)c3c(Cl)cccc3Cl)CC2)Oc2c(OC3CCCC3)cc(Cl)cc21 | 7.95
O=C1CC2(CCN(CCNC(=O)c3c(Cl)cccc3Cl)CC2)Oc2cc(NCCO)c(Cl)cc21 | 8.78
Cc1cc2c(cc1N(C)C(=O)CC1CCCC1)OC1(CCN(CCNC(=O)c3c(Cl)cccc3Cl)CC1)CC2=O | 8.485
O=C1NC2(CCN(CCNC(=O)c3c(Cl)cccc3Cl)CC2)Oc2c1ccc(OC1CCCC1)c2Cl | 8.49
Cc1cccc(C)c1C(=O)NCCN1CCC2(CC1)NC(=O)c1cc(Cl)c(NC3CCNCC3)cc1O2 | 6.57
O=C(NCCN1CCC2(CC1)CC(=O)c1c(O)cccc1O2)c1c(Cl)cccc1Cl | 6.47
CC(C)Oc1cc2c(cc1Cl)C(=O)NC1(CCN(CCNC(=O)c3c(Cl)cccc3Cl)CC1)O2 | 8.90
CCOc1ccc2c(c1)OC1(CCN(CCNC(=O)c3c(Cl)cccc3Cl)CC1)CC2=O | 7.82
O=C(NCCN1CCC2(CC1)CC(=O)c1c(F)cccc1O2)c1c(Cl)cccc1Cl | 6.84
Cc1cc(NC2CCOCC2)c2c(c1)C(=O)NC1(CCN(CCNC(=O)c3c(C)cccc3C)CC1)O2 | 7.33
O=C1NC2(CCN(CCNC(=O)c3c(Cl)cccc3Cl)CC2)Oc2cc(NC3CCNCC3)c(Cl)cc21 | 7.84
Cc1cc(NC(C)C)c2c(c1)C(=O)NC1(CCN(CCNC(=O)c3c(Cl)cccc3Cl)CC1)O2 | 8.275
CC(=O)N1CCC(Oc2cc3c(cc2Cl)C(=O)CC2(CCN(CCNC(=O)c4c(C)cccc4C)CC2)O3)CC1 | 8.35
CC(=O)N1CCC(Oc2cc3c(cc2Cl)C(O)CC2(CCN(CCNC(=O)c4c(Cl)cccc4Cl)CC2)O3)CC1 (single isomer, unassigned) [104] | 9.09
O=C1CC2(CCN(CCNC(=O)c3c(Cl)cccc3Cl)CC2)Oc2cc(N3CCCC3)ccc21 | 9.11
COc1ccc2c(c1OC)OC1(CCN(CCNC(=O)c3c(Cl)cccc3Cl)CC1)CC2=O | 7.75

Structure (SMILES) | pIC50 values for ENT1 transporter inhibition
CC(=O)N1CCC(Nc2cc3c(cc2Cl)C(O)CC2(CCN(CCNC(=O)c4c(Cl)cccc4Cl)CC2)O3)CC1 (stereo not drawn) | 8.39
Cc1cc2c(cc1OC1CCCC1)OC1(C=C2)CCN(CCNC(=O)c2c(Cl)cccc2Cl)CC1 | 9.335
Nc1ccc2c(c1Cl)OC1(CCN(CCNC(=O)c3c(Cl)cccc3Cl)CC1)NC2=O | 7.59
COc1ccc2c(c1)OC1(CCN(CCNC(=O)c3c(Cl)cccc3Cl)CC1)NC2=O | 7.35
O=C(NCCN1CCC2(C=Cc3cc(Cl)c(OC4CCCC4)cc3O2)CC1)c1c(Cl)cccc1Cl | 9.29
CC(C)Oc1cc2c(cc1Cl)C(O)CC1(CCN(CCNC(=O)c3c(Cl)cccc3Cl)CC1)O2 (stereo not drawn) | 8.81
CN1CCC(Oc2cc3c(cc2Cl)C(=O)CC2(CCN(CCNC(=O)c4c(Cl)cccc4Cl)CC2)O3)CC1 | 8.26
O=C1NC2(CCN(CCNC(=O)c3c(Cl)cccc3Cl)CC2)Oc2c1ccc(N1CCOCC1)c2Cl | 8.215
Cc1cc(NC2CCOCC2)c2c(c1)C(=O)NC1(CCN(CCNC(=O)c3c(Cl)cccc3Cl)CC1)O2 | 8.71
O=C(NCCN1CCC2(CC1)CC(O)c1cc(Cl)c(Br)cc1O2)c1c(Cl)cccc1Cl (stereo not drawn) | 7.74
COc1cc(Cl)cc2c1OC1(CCN(CCNC(=O)c3c(C)cccc3C)CC1)NC2=O | 6.5
Cc1cccc(C)c1C(=O)NCCN1CCC2(CC1)NC(=O)c1cc(Cl)cc(OC(C)C)c1O2 | 6.29
CCOc1ccc2c(c1)C(=O)CC1(CCN(CCNC(=O)c3c(Cl)cccc3Cl)CC1)O2 | 7.15
CC(C)(C)OC(=O)N1CCN(c2cc3c(cc2Cl)C(=O)NC2(CCN(CCNC(=O)c4c(Cl)cccc4Cl)CC2)O3)CC1 | 9.52
Cc1cc2c(cc1C)C(=O)CC1(CCN(CCNC(=O)c3c(Cl)cccc3Cl)CC1)O2 | 7.69
CN(CCCNc1cc2c(cc1Cl)C(=O)NC1(CCN(CCNC(=O)c3c(Cl)cccc3Cl)CC1)O2)C(=O)OC(C)(C)C | 9.30
CC(C)Oc1ccc2c(c1)OC1(CCN(CCNC(=O)c3c(Cl)cccc3Cl)CC1)NC2=O | 8.50
CC(=O)N1CCC(Nc2cc3c(cc2Cl)CCC2(CCN(CCNC(=O)c4c(Cl)cccc4Cl)CC2)O3)CC1 | 8.92
CNc1cc2c(cc1C)C(=O)CC1(CCN(CCNC(=O)c3c(Cl)cccc3Cl)CC1)O2 | 8.26
Nc1cc(Cl)cc2c1OC1(CCN(CCNC(=O)c3c(Cl)cccc3Cl)CC1)NC2=O | 7.58
CNc1cc2c(cc1Cl)C(=O)NC1(CCN(CCNC(=O)c3c(Cl)cccc3Cl)CC1)O2 | 8.19
Cc1cc(NC2CCCC2)c2c(c1)C(=O)NC1(CCN(CCNC(=O)c3c(Cl)cccc3Cl)CC1)O2 | 8.74
Cc1cc2c(c(N3CCOCC3)c1)OC1(CCN(CCNC(=O)c3c(Cl)cccc3Cl)CC1)NC2=O | 7.29
Nc1cc2c(cc1Cl)C=CC1(CCN(CCNC(=O)c3c(Cl)cccc3Cl)CC1)O2 | 8
CCOc1ccc2c(c1C)OC1(CCN(CCNC(=O)c3c(Cl)cccc3Cl)CC1)CC2=O | 8.79
Cc1cccc(C)c1C(=O)NCCN1CCC2(CC1)CC(=O)c1cc(Cl)c(NC3CCCC3)cc1O2 | 8.69
Cc1cc(N)c2c(c1)C(=O)NC1(CCN(CCNC(=O)c3c(Cl)cccc3Cl)CC1)O2 | 6.6
